Measured values published in patent publication US9067888B2, “Inhibitors of protein kinases” (Ingenium Pharmaceuticals GmbH, priority 2010, dated 2015).

The chains behind the UniProt entries cited, without tags or fusion partners.
UniProt P50750, whole entry: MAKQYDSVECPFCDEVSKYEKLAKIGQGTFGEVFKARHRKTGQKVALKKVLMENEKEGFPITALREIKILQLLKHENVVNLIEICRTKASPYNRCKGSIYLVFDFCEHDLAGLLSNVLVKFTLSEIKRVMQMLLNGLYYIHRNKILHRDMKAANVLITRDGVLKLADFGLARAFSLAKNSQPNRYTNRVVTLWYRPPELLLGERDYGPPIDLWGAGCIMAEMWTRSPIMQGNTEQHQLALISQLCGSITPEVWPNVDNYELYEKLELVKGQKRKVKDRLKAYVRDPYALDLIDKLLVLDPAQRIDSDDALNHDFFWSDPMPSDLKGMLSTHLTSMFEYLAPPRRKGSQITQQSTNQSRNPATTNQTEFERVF

Molecular target: CDK9/CycT (Homo sapiens (Human), UniProt P50750)
Test: Kinase activity assay IC50 profile
Type: biochemical
Details: read-out: IC50 CDK9/T1
Procedure: In vitro kinase assay analysis may be performed using standard techniques described in the art. These techniques are also used by commercial services providers in order to offer in vitro kinase activity assay services, e.g. the assays offered by Millipore Inc. (worldwide website www(dot)millipore.com), ProQinase GmbH (worldwide website www(dot)proqinase.de) and others.
On the day of the kinase inhibition assay, 451 μl H2O were added to each well of a set of compound dilution plates. To minimize precipitation, the H2O was added to the plates only a few minutes before the transfer of the compound solutions into the assay plates. The plates were shaken thoroughly, resulting in “compound dilution plates/10%/DMSO” with a concentration of 1×10^−03 M/10% DMSO to 3×10^−08 M/10% DMSO in semilog steps. These plates were used for the transfer of 5 μl compound solution into the “assay plates”. The compound dilution plates were discarded at the end of the working day. For the assays (see below), 5 μl solution from each well of the compound dilution plates were transferred into the assay plates. The final volume of the assay was 50 μl. […]
The median value of the counts in column 1 (n=8) of each assay plate was defined as “low control”. This value reflects unspecific binding of radioactivity to the plate in the absence of a protein kinase but in the presence of the substrate. […]

IC50: 3 nM
SMILES: COc1cc(F)ccc1-c1ccnc(NC(=O)[C@H]2CCC[C@@H](NC(C)=O)C2)c1 (relative stereo) [Example 33, cis-3-Acetamido-N-(4-(4-fluoro-2-methoxyphenyl)pyridin-2-yl)cyclo-hexanecarboxamide]
